The target of assay [1] is T1, Sigma non-opioid intracellular receptor 1 (Cavia porcellus, UniProt Q60492). The assay is described as follows: Displacement of [3H]-PTZ from sigma1 receptor in guinea pig brain membranes after 150 mins in presence of DPH solvent by liquid scintillation counting method. (In general: Displacement assays read how much labelled ligand stays bound in the presence of the test substance.)

Assay [2] has as its target T1, Sigma non-opioid intracellular receptor 1. The assay is described as follows: Displacement of [3H]-PTZ from sigma1 receptor in guinea pig brain membranes after 150 mins in presence of 1 mM DPH by liquid scintillation counting method.
The target is the same in assay [3]. The assay is described as follows: Displacement of [3H]-(+)-pentazocin from sigma1 receptor in guinea pig brain P2 membranes after 120 mins.

Usually Ki stands for a measure of affinity in units of concentration, obtained from inhibition or displacement. On to `C[C@@H]1[C@@H]2Cc3ccc(O)cc3[C@@]1(C)CCN2CCc1ccccc1`, for which the Ki in assay [1] is 0.0043 µM; in assay [2], 0.0038 µM; in assay [3] it was 0.055 µM.
For `C[C@H]1[C@H]2Cc3ccc(O)cc3[C@]1(C)CCN2CCc1ccccc1` the same measures were 0.08 µM, 0.085 µM and 0.0002 µM.

The values above are taken from ChEMBL document CHEMBL4000164, “(+)-and (-)-Phenazocine enantiomers: Evaluation of their dual opioid agonist/σ1 antagonist properties and antinociceptive effects” (Eur J Med Chem, 2017).
